From ChEMBL document CHEMBL1795228, “Air to lung partition coefficients for volatile organic compounds and blood to lung partition coefficients for volatile organic compounds and drugs” (Eur J Med Chem, 2008)
This is a selection: effects in other tests are not listed, and their absence says nothing.

Assay: In-vivo plasma to lung partition coefficients of the compound, logP(lung) in rat
Type: ADME, cell-free

## CCC(=O)N(c1ccccc1)C1(COC)CCN(CCn2nnn(CC)c2=O)CC1
  logP(lung): -0.11
